{
  "source": "patent US20250276120A1",
  "about": "“METHOD FOR PREVENTING COAGULATION IN PATIENTS WITH IMPLANTED CARDIAC DEVICES” (Cadrenal Therapeutics, Inc., priority 2024, published 2025)",
  "details": "any CYP2C9 genotype",
  "data": [
    {"smiles": "CC(OC(=O)c1ccc(Cc2c(O)c3ccccc3oc2=O)cc1)(C(F)(F)F)C(F)(F)F", "note": "[Tecarfarin, 1,1,1,3,3,3-hexafluoro-2-methyl-2-propanyl 4-[(4-hydroxy-2-oxo-2H-chromen-3-yl)methyl] benzoate]", "values": [
      {"measurement": "exposure in healthy subjects versus CKD subjects regardless of CYP2C9 genotype", "value": "similar"}
    ]}
  ]
}
